Test results from the NIST ThermoML archive (doi:10.1021/acs.jced.7b00119).
Numbers after ± are expanded uncertainties.

What was measured:
[1] = 353.15 K; Liquid; Closed cell (Static) method
[2] = excess molar enthalpy (molar enthalpy of mixing); xn = mol fraction of the nth substance listed; conditions: 323.15 K, 1272 kPa, Liquid, Flow calorimetry

For CCCCOCCCC [dibutyl ether], the “vapor or sublimation pressure” value [1] was 13.9 ± 0.17 kPa.
With CCCCOCCCC [dibutyl ether] + CC(=O)N(C)C the excess molar enthalpy ([2]; x1 = 0.0281) was 0.0387 ± 0.00167 kcal/mol, the excess molar enthalpy ([2]; x1 = 0.0575) was 0.0755 ± 0.00263 kcal/mol and the excess molar enthalpy ([2]; x1 = 0.0883) was 0.112 ± 0.00335 kcal/mol. It also gave an excess molar enthalpy ([2]; x1 = 0.1206) of 0.147 ± 0.00406 kcal/mol, an excess molar enthalpy ([2]; x1 = 0.1546) of 0.179 ± 0.00478 kcal/mol and an excess molar enthalpy ([2]; x1 = 0.1904) of 0.209 ± 0.0055 kcal/mol. The excess molar enthalpy ([2]; x1 = 0.2281) was 0.234 ± 0.00598 kcal/mol, the excess molar enthalpy ([2]; x1 = 0.2678) was 0.258 ± 0.00645 kcal/mol and the excess molar enthalpy ([2]; x1 = 0.3098) was 0.277 ± 0.00693 kcal/mol. It also gave an excess molar enthalpy ([2]; x1 = 0.3543) of 0.295 ± 0.00717 kcal/mol, an excess molar enthalpy ([2]; x1 = 0.4014) of 0.308 ± 0.00741 kcal/mol and an excess molar enthalpy ([2]; x1 = 0.4515) of 0.317 ± 0.00765 kcal/mol. The excess molar enthalpy ([2]; x1 = 0.5047) was 0.321 ± 0.00789 kcal/mol, the excess molar enthalpy ([2]; x1 = 0.5615) was 0.317 ± 0.00765 kcal/mol and the excess molar enthalpy ([2]; x1 = 0.6221) was 0.308 ± 0.00741 kcal/mol. The excess molar enthalpy ([2]; x1 = 0.687) was 0.287 ± 0.00693 kcal/mol, the excess molar enthalpy ([2]; x1 = 0.7566) was 0.252 ± 0.00621 kcal/mol and the excess molar enthalpy ([2]; x1 = 0.8316) was 0.199 ± 0.00526 kcal/mol. For the same compound, the excess molar enthalpy ([2]; x1 = 0.9125) was 0.12 ± 0.00359 kcal/mol.
